This is an account of results in patent US20210154269A1.

In experiment [1] the target is human CD47 (human) (UniProt Q08722). The experiment in a line: cell-based or functional assay.
The target is the same in experiment [2]. Put plainly: in vitro receptor occupancy assay, at ~1 nM.
Experiment [3] shares this target. Put plainly: affinity for human CD47; method not stated.
For experiment [4] the target is unchanged. Put plainly: in vitro receptor occupancy assay (percent CD47 occupancy against concentration in nM).

In general, Kd refers to the equilibrium constant for the complex coming apart. The low end stands for higher affinity, the high end for lower affinity. The term EC50 (read off the curve) denotes the concentration that produces a half-maximal response. Lower therefore signals higher potency in that assay. In the experiment with human CD47 (human) [1], F59/magrolimab (antibody) displayed an EC50, PathHunter SIRPα Signaling Bioassay of 0.0744 µg/mL and an inhibition of SIRPα signaling at 1 nM of 80%. This substance yielded a receptor occupancy with human CD47 (human) [2] of 90%. In the experiment with human CD47 (human) [3], this substance registered a Kd of 7 nM. Moreover, the EC50 (read off the curve) with human CD47 (human) [4] was 0.2 nM.
